Data on three compounds can be found in PMC3352927, “Development and Validation of an Automated High-Throughput System for Zebrafish In Vivo Screenings” (PLoS ONE, 2012).

The subject of data set [1] is 48 hpf zebrafish embryos. The note with it: blind screened between 1 and 200 µM; predominant effect.
The subject of data set [2] is zebrafish embryos. As to the kind of experiment: Automated angiogenesis assay (ISV formation), Flk1:copGFP embryos treated at 22-26 hpf, read at 48 hpf. Format: in vivo. The note with it: for IC50: Danio rerio; for Angiog. inhibition: presence or absence of an anti-angiogenic effect, 0.01-100 µM; for Anti-angiogenic phenotype (ISVs / DLAV): treated at 24 hpf, checked at 48 hpf.

Setting [3] is: read-out: IC50 C.V. (complete number of vessels).
Where [4] appears, read: read-out: IC50 T.V. (total number of vessels).

Entries after “also recorded” stand apart in the source; their conditions may differ. Structures can show the parent of a compound that is named as a salt. Where two headings read alike, the source gives them in different places.

With `Cc1nc2n(c(=O)c1CCN1CCC(c3noc4cc(F)ccc34)CC1)CCCC2` [Risperidone], in data set [1], the “Cardiotoxic effect in zebrafish” value was “Arrhythmia 2∶1”.
The term IC50 denotes the concentration that inhibits the measured activity by half. Consider `CNC(=O)c1cc(Oc2ccc(NC(=O)Nc3ccc(Cl)c(C(F)(F)F)c3)cc2)ccn1` [Sorafenib Tosylate], for which the IC50 in data set [2] (setting [3]) came out at 0.53 µM. For the same compound, the IC50 in data set [2] (setting [4]) was 0.78 µM. Also, in data set [2], the Angiog. inhibition result was “Yes” and the “Anti-angiogenic phenotype (ISVs / DLAV)” value is “the formation of ISVs was perturbed with defective or total absence of sprouting; also recorded: lower number of incomplete ISVs”.
On the same counts, the results for `CCN(CC)CCNC(=O)c1c(C)[nH]c(/C=C2\C(=O)Nc3ccc(F)cc32)c1C` [Sunitinib malate] are 1.7 µM, 2.6 µM, “Yes” and “the formation of ISVs was perturbed with defective or total absence of sprouting”.
